According to US12139488B2, “Pyrido[3,2-d]pyrimidine compounds uses thereof for treating a proliferative disease” (Universite de Montreal, priority 2021, dated 2024):

System: pERK in HCT-116 cells (KRAS G13D)
Experiment: Phospho-ERK inhibition (AlphaLISA SureFire Ultra p-ERK 1/2), HCT116
Details: read-out: HCT116 pERK IC50; HCT116 cells; class symbol
Protocol: All cancer cell lines (A375, A101D, A2058, RKO, HT29 SK-MEL 30, IPC298, HepG2, HCT-116, Lovo, SWV620, SW480, NCI-H358, NCI-H2122, Calu-6, NCIH2087, NCIH1755, NCIH1666 and Mewo) were obtained from ATCC and cultured in RPMI-1640 medium (Gibco) supplemented with 5% heat inactivated fetal bovine serum (FBS, Wisent) at 37° C. under 5% CO2. Cells were maintained in T175 flasks (Greiner). They were passaged by removing the culture medium, washing once in 10 mL of room temperature Phosphate Buffered Saline (PBS; Wisent) and incubating at 37° C. with 2 mL of 0.05% Trypsin (Thermo-Fisher). Trypsin was then inactivated by adding complete growth medium and the cells were then replated in a T175 culture dish at the appropriate dilution. All cell lines were routinely tested for mycoplasma contamination. Tissue type and mutational status of each cell line can be found in Table B.
AlphaLISA® SureFire® Ultra™ p-ERK 1/2 (Thr202/Tyr204) analysis was conducted on cells plated in 100 μL of complete RPMI-1640 growth medium in 96-well flat-bottomed transparent dishes (Costar) at a density indicated in Table C. Cells were maintained overnight at 37° C. under 5% CO2 before treatment with compounds' dilution series for one hour. The cell density in cells/cm^2 corresponds to cell number divided by the area of one well of a 96-well plate ([…]).
In a dilution series 100 μL/well of test substance dilution prepared in complete RPMI-1640 growth media was added to the cells. The dilution series is selected so that ten concentrations cover a range from 10 μM to 0.33 nM. If necessary the initial concentration of 10 μM is increased to 100 μM or lowered to 1 μM (as in the case of A375 and H1666 cells, which are generally more sensitive to the compounds) and further dilution is carried out accordingly. The final concentration of DMSO in the assay is set at 0.5%.
After treatment, media was removed and cells were lysed in 50 μL of 1× AlphaScreen Ultra Lysis Buffer (Perkin Elmer). The AlphaLISA® SureFire® Ultra™ p-ERK 1/2 (Thr202/Tyr2O4) (PerkinElmer) reactions were performed with 5 μL of cell lysate according to the manufacturer's specifications in 384-well proxyplates (Perkin Elmer) followed by overnight incubation of the reactions at room temperature in a humidified chamber. After completion of the reactions, the signals were recorded on an EnVision plate reader (Perkin Elmer) using built in AlphaLISA® settings.
The effect of each compound dilution on the pERK signal was expressed in % inhibition and calculated as follows. An internal 100% inhibition control ([…] trametinib, cat #HY-10999; MedChem Express; CAS #871700-17-3) was included in each plate and used as a measure of pERK background. First, the value obtained for trametinib was subtracted from each data point. The average of DMSO (vehicle) controls (set as 0% inhibition) was established and used to calculate % inhibition: % inhibition=100*(1-((pERK signalcompound)/(pERK signalDMSO)))
The ability of each compound to inhibit pERK signal was expressed as an IC50 value obtained by plotting the inhibition values for each data point of a dilution series and fitting the obtained curves using a log(agonist) versus response-variable slope (four parameters) function using GraphPadPrism (V7.0) or Dotmatics Screening Ultra platform.
When present, paradoxical pERK induction is inferred from the negative % inhibition values observed in the pERK IC50 curves of a compound.

SMILES	IC50 [nM]
CN(C)CCNS(=O)(=O)c1cn(-c2ccc3ncnc(Nc4c(F)ccc(NS(=O)(=O)c5cccc(Cl)c5Cl)c4F)c3n2)c2ccccc12	< 500
CCN(CC)CCN(C)S(=O)(=O)c1cn(-c2ccc3ncnc(Nc4c(F)ccc(NS(=O)(=O)c5cccc(Cl)c5Cl)c4F)c3n2)c2ccccc12	< 500
Cc1cn(-c2ccc3ncnc(Nc4c(F)ccc(NS(=O)(=O)c5cccc(F)c5C)c4F)c3n2)nc1C(=O)N(C)Cc1ccncc1	< 500
O=S(=O)(Nc1ccc(F)c(Nc2ncnc3ccc(-n4cnc(C(F)(F)F)c4)nc23)c1F)c1cccc(Cl)c1Cl	500 to 1000
Cc1c(F)cccc1S(=O)(=O)Nc1ccc(F)c(Nc2ncnc3ccc(-n4nc(C(=O)N5C[C@@H]6CC5CN6)c5ccccc54)nc23)c1F	500 to 1000
CC(C)(C)OC(=O)C(C)(C)S(=O)(=O)c1cn(-c2ccc3ncnc(Nc4c(F)ccc(NS(=O)(=O)c5cccc(Cl)c5Cl)c4F)c3n2)c2ccccc12	500 to 1000
O=S(=O)(Nc1ccc(F)c(Nc2ncnc3ccc(-c4cnn5c4CCCC5)nc23)c1F)c1cccc(Cl)c1Cl	1000 to 10000
Cc1c(F)cccc1S(=O)(=O)Nc1ccc(F)c(Nc2ncnc3ccc(-n4ncc5c4CN(C(=O)CN)CC5)nc23)c1F	1000 to 10000
O=S(=O)(Nc1ccc(F)c(Nc2ncnc3ccc(-n4cc(S(=O)(=O)N5CC(C(F)F)C5)c5ccccc54)nc23)c1F)c1cccc(Cl)c1Cl	< 500
Cc1c(F)cccc1S(=O)(=O)Nc1ccc(F)c(Nc2ncnc3ccc(-n4nc(C(=O)NCC(C)(C)O)c5ccccc54)nc23)c1F	500 to 1000
Cc1c(F)cccc1S(=O)(=O)Nc1ccc(F)c(Nc2ncnc3ccc(-n4cc(C(=O)N(C)Cc5ccncc5)c5ccccc54)nc23)c1F	< 500
Cc1c(F)cccc1S(=O)(=O)Nc1ccc(F)c(Nc2ncnc3ccc(-n4nc(C(=O)N5CCNCC5)c5ccccc54)nc23)c1F	< 500
Cc1c(F)cccc1S(=O)(=O)Nc1ccc(F)c(Nc2ncnc3ccc(-n4cc(C(=O)N(C)CC(C)(C)O)c5ccccc54)nc23)c1F	< 500
COc1ccc(S(=O)(=O)Nc2ccc(F)c(Nc3ncnc4ccc(-n5cc(S(C)(=O)=O)c6ccccc65)nc34)c2F)cc1	< 500
COCCN(C)S(=O)(=O)c1cn(-c2ccc3ncnc(Nc4c(F)ccc(NS(=O)(=O)c5cccc(F)c5C)c4F)c3n2)c2ccccc12	< 500
Cc1c(F)cccc1S(=O)(=O)Nc1ccc(F)c(Nc2ncnc3ccc(-n4cc(S(=O)(=O)N5CCN(C)CC5)c5ccccc54)nc23)c1F	< 500
Cc1c(F)cccc1S(=O)(=O)Nc1ccc(F)c(Nc2ncnc3ccc(-n4cc(C(=O)N(C)C)c5ccccc54)nc23)c1F	< 500
Cc1c(F)cccc1S(=O)(=O)Nc1ccc(F)c(Nc2ncnc3ccc(-n4cnc(CC#N)c4)nc23)c1F	< 500
Cc1c(F)cccc1S(=O)(=O)Nc1ccc(F)c(Nc2ncnc3ccc(-n4cnc(CCO)c4)nc23)c1F	1000 to 10000
Cc1nccc(S(=O)(=O)Nc2ccc(F)c(Nc3ncnc4ccc(-n5cnc6c(N)cccc65)nc34)c2F)c1C	1000 to 10000
Cc1c(Cl)cccc1S(=O)(=O)Nc1ccc(F)c(Nc2ncnc3ccc(-n4cc(S(=O)(=O)N(C)CCN(C)C)c5ccccc54)nc23)c1F	< 500
O=S(=O)(Cc1ccncc1)c1cn(-c2ccc3ncnc(Nc4c(F)ccc(NS(=O)(=O)c5cccc(Cl)c5Cl)c4F)c3n2)c2ccccc12	< 500
Cc1c(F)cccc1S(=O)(=O)Nc1ccc(F)c(Nc2ncnc3ccc(-n4cc(S(=O)(=O)N5CCOCC5)c5ccccc54)nc23)c1F	< 500
CN(c1cccnc1)S(=O)(=O)c1cn(-c2ccc3ncnc(Nc4c(F)ccc(NS(=O)(=O)c5cccc(Cl)c5Cl)c4F)c3n2)c2ccccc12	< 500
Cc1c(F)cccc1S(=O)(=O)Nc1ccc(F)c(Nc2ncnc3ccc(-n4cc(C(=O)N5CCC(C)(O)CC5)c5ccccc54)nc23)c1F	< 500
CNC(=O)c1nn(-c2ccc3ncnc(Nc4c(F)ccc(NS(=O)(=O)c5cccc(F)c5C)c4F)c3n2)c2ccccc12	< 500
CN(Cc1ccncc1)C(=O)c1nn(-c2ccc3ncnc(Nc4c(F)ccc(NS(=O)(=O)c5cccc(Cl)c5Cl)c4F)c3n2)c2ccccc12	< 500
O=S(=O)(Cc1ccccc1F)c1cn(-c2ccc3ncnc(Nc4c(F)ccc(NS(=O)(=O)c5cccc(Cl)c5Cl)c4F)c3n2)c2ccccc12	1000 to 10000
COc1ccc(S(=O)(=O)Nc2ccc(F)c(Nc3ncnc4ccc(-n5nnc6ccccc65)nc34)c2F)c(C)c1Cl	< 500

The next lines start with the values.

IC50 [nM]	SMILES
1000 to 10000	O=C1CCCc2c1ccn2-c1ccc2ncnc(Nc3c(F)ccc(NS(=O)(=O)c4cccc(Cl)c4Cl)c3F)c2n1
< 500	O=S(=O)(Nc1ccc(F)c(Nc2ncnc3ccc(-n4cnc5c(N6CCOCC6)cccc54)nc23)c1F)c1cccc(Cl)c1Cl
< 500	O=S(=O)(Nc1ccc(F)c(Nc2ncnc3ccc(-n4cc(S(=O)(=O)N5CCC(O)CC5)c5ccccc54)nc23)c1F)c1cccc(Cl)c1Cl
500 to 1000	Cc1c(C(F)(F)F)cccc1S(=O)(=O)Nc1ccc(F)c(Nc2ncnc3ccc(-n4cnc5c(N)cccc54)nc23)c1F
1000 to 10000	O=S(=O)(Nc1ccc(F)c(Nc2ncnc3ccc(-n4cc(S(=O)(=O)N5C[C@@H](O)[C@H](F)C5)c5ccccc54)nc23)c1F)c1cccc(Cl)c1Cl
1000 to 10000	O=S(=O)(Nc1ccc(F)c(Nc2ncnc3ccc(-n4cnc5c(Cl)cncc54)nc23)c1F)c1cccc(Cl)c1Cl
< 500	Nc1cccc2c1ncn2-c1ccc2ncnc(Nc3c(F)ccc(NS(=O)(=O)c4cccc(Cl)c4C(F)(F)F)c3F)c2n1
< 500	CC(C)(O)[C@@H]1CCCN1S(=O)(=O)c1cn(-c2ccc3ncnc(Nc4c(F)ccc(NS(=O)(=O)c5cccc(Cl)c5Cl)c4F)c3n2)c2ccccc12
1000 to 10000	O=S(=O)(Nc1ccc(F)c(Nc2ncnc3ccc(-n4nc5ccccc5n4)nc23)c1F)c1cccc(Cl)c1Cl
< 500	O=S(=O)(Nc1ccc(F)c(Nc2ncnc3ccc(-n4cnc5c(N6CC[C@H](CO)C6)cccc54)nc23)c1F)c1cccc(Cl)c1Cl
< 500	CN1CCN(c2cccc3c2ncn3-c2ccc3ncnc(Nc4c(F)ccc(NS(=O)(=O)c5cccc(Cl)c5Cl)c4F)c3n2)CC1
< 500	O=S(=O)(Nc1ccc(F)c(Nc2ncnc3ccc(-n4cc(S(=O)(=O)N5CC(CO)C5)c5ccccc54)nc23)c1F)c1cccc(Cl)c1Cl
< 500	C[C@H]1COCCN1S(=O)(=O)c1cn(-c2ccc3ncnc(Nc4c(F)ccc(NS(=O)(=O)c5cccc(Cl)c5Cl)c4F)c3n2)c2ccccc12
< 500	CCc1c(F)cccc1S(=O)(=O)Nc1ccc(F)c(Nc2ncnc3ccc(-n4cnc5c(N)cccc54)nc23)c1F
< 500	O=S(=O)(Nc1ccc(F)c(Nc2ncnc3ccc(-n4cc(S(=O)(=O)C5=C(O)CCCC5)c5ccccc54)nc23)c1F)c1cccc(Cl)c1Cl
< 500	O=S(=O)(Nc1ccc(F)c(Nc2ncnc3ccc(-n4cnc5c(N6CCC(O)CC6)cccc54)nc23)c1F)c1cccc(Cl)c1Cl
< 500	O=S(=O)(Nc1ccc(F)c(Nc2ncnc3ccc(-n4cnc5c(Cl)nccc54)nc23)c1F)c1cccc(Cl)c1Cl
1000 to 10000	Nc1cccc2c1ncn2-c1ccc2ncnc(Nc3c(F)ccc(NS(=O)(=O)c4cccc5c4OC(F)(F)O5)c3F)c2n1
< 500	CC(C)S(=O)(=O)c1cn(-c2ccc3ncnc(Nc4c(F)ccc(NS(=O)(=O)c5cccc(Cl)c5Cl)c4F)c3n2)c2ccccc12
< 500	CN([C@@H]1CCOC1)S(=O)(=O)c1cn(-c2ccc3ncnc(Nc4c(F)ccc(NS(=O)(=O)c5cccc(Cl)c5Cl)c4F)c3n2)c2ccccc12
500 to 1000	NS(=O)(=O)c1cn(-c2ccc3ncnc(Nc4c(F)ccc(NS(=O)(=O)c5cccc(Cl)c5Cl)c4F)c3n2)c2ccccc12
1000 to 10000	O=S(=O)(Nc1ccc(F)c(Nc2ncnc3ccc(-n4cnc(-c5ccccc5)c4)nc23)c1F)c1cccc(Cl)c1Cl
< 500	CN(C)S(=O)(=O)c1cn(-c2ccc3ncnc(Nc4c(F)ccc(NS(=O)(=O)c5cccc(Cl)c5Cl)c4F)c3n2)c2ccccc12
